In patent publication US11213027B2, “Combined administration of a penetration agent and a sulfur containing compound to plants” (THE STATE OF ISRAEL, MINISTRY OF AGRICULTURE & RURAL …, priority 2016, dated 2022):
Only a part of the results on these compounds is given; other tests are left out.

System: cv. Early Sweet vines
Assay: Bud break on whole vines in a vineyard, Jordan Valley (spur pruning, hot winter)
Type: in vivo, Vitis vinifera
Settings: Example 3, FIG. 3; 10% ammonium nitrate with 2% Armobreak®; sprayed 15 January

Substance: ammonium nitrate
- bud break: inferior
